GIV-Gai inh: inhibitors of GIV peptide binding to Galpha-i3, primary screen, biochemical, fluorescence polarization, FITC-GIV GBA peptide, rat Galphai3; Guanine nucleotide-binding protein G(i) subunit alpha-3 (Rattus norvegicus), P08753; 0.42% of 210,000 active; percent of control (FP), % (concentration not given with the values); 90 min; stronger effect = lower value; scaled: aluminum fluoride 0%, vehicle 100%;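 active = replicate mean at 85% of control or lower, very high polarization wells dropped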;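 note: wells of about 15 µL received 100 nL stock; the first replicate is given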
GIV Gai FP conf: inhibitors of GIV peptide binding to Galpha-i3, confirmation, biochemical, fluorescence polarization, FITC-GIV peptide, rat Galphai3; fluorescence polarization, mP at 100 µM; shares compounds with GIV-Gai inh; stronger effect = lower value; 38% of 580 active;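 active means inhibition score of 15 or more, meaning 100 minus mean polarization as percent of control over three replicates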
GIV-Gai AS conf: inhibitors of GIV binding to Galpha-i3, confirmation, orthogonal assay for GIV-Galpha-i inhibitor project, biochemical, AlphaScreen, His-GIV, GST-Galphai3. shares compounds with GIV-Gai inh. purified proteins, 90 min; stronger effect = lower value. AlphaScreen counts at 100 µM. 39% of 580 active;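 active means inhibition score at or above a set limit, where the score is 100 minus the three-replicate mean percent of control signal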
Numbers without * were called inactive; ! = repeats disagree. The entries come from a sample that favours hits as a whole.

The chains behind the UniProt entries cited, without tags or fusion partners.
Guanine nucleotide-binding protein G(i) subunit alpha-3 (Rattus norvegicus), P08753, UniProt P08753, whole entry, looked up: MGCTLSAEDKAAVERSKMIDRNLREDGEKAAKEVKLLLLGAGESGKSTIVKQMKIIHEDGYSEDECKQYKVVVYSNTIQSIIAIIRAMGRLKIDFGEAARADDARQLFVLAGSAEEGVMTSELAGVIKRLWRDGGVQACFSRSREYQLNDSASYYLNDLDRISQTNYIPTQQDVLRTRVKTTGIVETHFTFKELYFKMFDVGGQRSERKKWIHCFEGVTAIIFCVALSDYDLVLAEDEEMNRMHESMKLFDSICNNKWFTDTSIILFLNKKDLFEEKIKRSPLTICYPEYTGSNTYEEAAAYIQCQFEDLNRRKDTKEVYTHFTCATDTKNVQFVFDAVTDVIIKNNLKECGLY

SMILES	GIV-Gai inh	others
Cc1ccc(C(=O)Nc2ccc(S(=O)(=O)O)c3cc(S(=O)(=O)O)cc(S(=O)(=O)O)c23)cc1NC(=O)c1cccc(NC(=O)Nc2cccc(C(=O)Nc3cc(C(=O)Nc4ccc(S(=O)(=O)O)c5cc(S(=O)(=O)O)cc(S(=O)(=O)O)c45)ccc3C)c2)c1	76.2*!	GIV Gai FP conf=61.2*;GIV-Gai AS conf=12181*
Cc1ccc(Cl)cc1NC(=O)c1cccc(NC(=O)N2CCSc3ncccc32)c1	112.6
COCCN1C(=O)c2c(C)nc3ccccc3c2C1=O	102.4
COc1ccc(N2C(=O)c3c(C)nc4ccccc4c3C2=O)cn1	84.3*	GIV Gai FP conf=54.6;GIV-Gai AS conf=42415
COc1ccc(N2C(=O)c3c(C)nc4ccccc4c3C2=O)cc1OC	102.9
Cc1nnc(NC(=O)CSc2nc3c(=O)n(C)c(=O)n(C)c3n2C)s1	98.6
CC(=O)N/N=c1\oc2ccccc2cc1C(=O)Nc1ccccc1	99.5
CCOC(=O)c1c(-c2ccc(Br)cc2)csc1/N=C/c1c(C)[nH]n(-c2ccccc2)c1=O	75.2*	GIV Gai FP conf=67.8;GIV-Gai AS conf=41072
Cc1[nH]n(-c2ccccc2)c(=O)c1C=Nc1cc(Br)ccc1O	106.8
CCOC(=O)c1c(-c2ccc(Br)cc2)csc1/N=C/C1C(=O)NC(=S)NC1=O	90.3
CCOC(=O)C1=C(N)n2c(s/c(=C/c3cccs3)c2=O)=C(C(=O)OCC)C1c1cccs1 (stereo unspecified)	113.9
COc1ccc(OC)c(C2C(C(=O)Nc3nc4ccccc4s3)=C(C)NC3=C2C(=O)CC(C)(C)C3)c1 (stereo unspecified)	105.2

Pulled by compound from the list above (4):
SMILES	GIV-Gai inh	others
COc1ccc(OC)c(C2C(C(=O)Nc3nc4ccccc4s3)=C(C)NC3=C2C(=O)CC(C)(C)C3)c1 (stereo unspecified)	105.2
COc1ccc(N2C(=O)c3c(C)nc4ccccc4c3C2=O)cn1	84.3*	GIV Gai FP conf=54.6;GIV-Gai AS conf=42415
CCOC(=O)c1c(-c2ccc(Br)cc2)csc1/N=C/C1C(=O)NC(=S)NC1=O	90.3
COCCN1C(=O)c2c(C)nc3ccccc3c2C1=O	102.4

(next part)
SMILES	GIV-Gai inh	others
CCOc1ccc(C2C(C(=O)Nc3nc4ccc(Br)cc4s3)=C(C)NC3=C2C(=O)CC(C)(C)C3)cc1 (stereo unspecified)	102.1
COc1ccc(OC)c(C2C(C(=O)Nc3nc4ccc(Br)cc4s3)=C(C)NC3=C2C(=O)CC(C)(C)C3)c1 (stereo unspecified)	87.7	GIV Gai FP conf=62.6;GIV-Gai AS conf=54834
COC(=O)Cn1cnc2sc(C)c(S(=O)(=O)N3CC(C)CC(C)C3)c2c1=O (stereo unspecified)	108.9
CCCCNc1ccc2nnc(CCNC(=O)c3ccccc3)n2n1	100.4
O=c1c(C=NCc2ccc3c(c2)OCO3)c(CSc2ccc(Cl)cc2)[nH]n1-c1nc2ccccc2s1	103.9
CCOC(=O)c1cc2c(=O)[nH]c3ccccc3c2s1	104.4
CCN(Cc1ccccc1)C(=O)c1cc2c(=O)[nH]c3ccc(C)cc3c2s1	103.1
CN(Cc1ccccc1)C(=O)c1cc2c(=O)[nH]c3ccccc3c2s1	86.7	GIV Gai FP conf=68.1;GIV-Gai AS conf=48153
CC(C)c1nn2c(=O)cc(COC(=O)c3ccccc3NC(=O)c3ccco3)nc2s1	99.2
COc1cc(C=C2C(=O)NC(=O)NC2=O)cc(Cl)c1OCc1ccc(Cl)cc1	86.5
Cc1ccc(COc2ccc(Br)cc2C=C2C(=O)NC(=S)NC2=O)cc1	100.4
O=C1NC(=O)C(=Cc2cc(Br)ccc2OCc2ccc(Cl)cc2)C(=O)N1	78.5*	GIV Gai FP conf=62.4;GIV-Gai AS conf=39620

The last two records of the part before are carried over, then new ones follow.
SMILES	GIV-Gai inh	others
Cc1ccc(COc2ccc(Br)cc2C=C2C(=O)NC(=S)NC2=O)cc1	100.4
O=C1NC(=O)C(=Cc2cc(Br)ccc2OCc2ccc(Cl)cc2)C(=O)N1	78.5*	GIV Gai FP conf=62.4;GIV-Gai AS conf=39620
COC(=O)C1=C(C)NC(=S)NC1c1ccccc1 (stereo unspecified)	104.0
Cc1ccc(C2=CC(c3c(F)cccc3Cl)n3ncnc3N2)cc1C (stereo unspecified)	98.3
Cc1ccsc1C1C=C(c2cccc(Br)c2)Nc2ncnn21 (stereo unspecified)	80.8*	GIV Gai FP conf=47.3*;GIV-Gai AS conf=49839
CCc1ccc(C2=CC(c3sccc3C)n3ncnc3N2)cc1 (stereo unspecified)	103.7
Cn1c(CN(c2ccc(F)cc2)S(C)(=O)=O)nnc1SCC(=O)N1CCOCC1	106.1
O=C1/C(=C\c2cccnc2)SC(=S)N1C1CCS(=O)(=O)C1 (stereo unspecified)	88.6	GIV Gai FP conf=72.8;GIV-Gai AS conf=36761
O=C1/C(=C/c2cccnc2)SC(=S)N1N1CCOCC1	103.2
O=C1/C(=C/c2cccnc2)CS/C1=C\c1cccnc1	113.0
CCCn1nnc2cc(-c3noc(-c4cnccn4)n3)ccc21	102.3
CCC(C)NC(=O)c1nnc(-c2oc3ccc(C)cc3c2C)o1 (stereo unspecified)	104.6
O=C1C(=O)N(C2CCN(S(=O)(=O)Cc3ccccc3)CC2)CCN1Cc1ccccc1	103.4
CC(NCc1ccc(F)cc1)C12CC3CC(CC(C3)C1)C2 (stereo unspecified)	88.4	GIV Gai FP conf=62.5;GIV-Gai AS conf=43107
Cc1occc1C(=O)NC(C)C12CC3CC(CC(C3)C1)C2 (stereo unspecified)	99.3
CC(NCc1ccc(F)cc1)C(=O)NC1CCCCC1 (stereo unspecified)	100.5
CCCCN(c1nc2nc(C)cc(C)n2n1)S(=O)(=O)c1ccc(C)cc1	106.3
COc1ccc(OC)c(/C=c2\sc3nc(-c4ccccc4)c(-c4ccccc4)n3c2=O)c1	110.2
O=C(Cn1cc(/C=c2/sc3nc4ccccc4n3c2=O)c2ccccc21)N1CCCC1	80.1*	GIV Gai FP conf=78;GIV-Gai AS conf=43306
O=c1/c(=C\c2cn(Cc3ccc(Cl)c(Cl)c3)c3ccccc23)sc2nc3ccccc3n12	116.9
O=C(Cn1cc(/C=c2/sc3nc4ccccc4n3c2=O)c2ccccc21)Nc1ccccc1	107.6
COc1ccc(C(=O)Oc2cc(/C=c3\sc4nc5ccccc5n4c3=O)ccc2OC)cc1	104.1
COc1ccc(OC)c(/C=c2\sc3nc4ccccc4n3c2=O)c1	88.7	GIV Gai FP conf=52.3*;GIV-Gai AS conf=38058
CCCN1CCN(Cc2nc3nc(C)cc(N4CCCCC4)n3n2)CC1	99.4
CCOC(=O)c1ccc(NC(=O)Cn2c3c(sc2=O)C2c4ccccc4OCC2CS3)cc1 (stereo unspecified)	106.2
CCc1nc2oc(C(=O)c3ccccc3)c(N)c2c2c1COC(C)(C)C2	100.1
CC1(C)Cc2c(c(-c3ccco3)nc3oc(C(=O)c4ccc(Br)cc4)c(N)c23)CO1	115.2
CCc1nc2oc(C(=O)c3ccc(Cl)cc3)c(N)c2c2c1COC(C)(C)C2	80.2*	GIV Gai FP conf=76.7;GIV-Gai AS conf=46961
O=S(=O)(NC1CCCCC1)c1cc(-c2nnc(C3CC3)o2)cs1	105.9
COc1ccc(C2CC(=O)N(c3ccc(F)cc3F)C(=O)C2)cc1	104.9
N#CN=C(N)CSc1nc(-c2ccccc2)cc(-c2ccccc2)c1C#N	99.0
CN1C(=O)/C(=C/c2cn(CC(=O)N3CCCC3)c3ccccc23)c2ccccc21	99.4
O=C(Cn1ccc2ccccc2c1=O)NC1CCCCCC1	107.8
CCc1cccc2c(/C=C3/C(=O)N(C)c4ccccc43)cn(CC(=O)NC3CCCC3)c12	80.2*	GIV Gai FP conf=34.3*;GIV-Gai AS conf=42825
CCOC(=O)c1c(CN2CCN(C)CC2)n(-c2ccccc2)c2ccc(O)cc12	97.5
COc1ccc(C(=O)Nc2ccc(-c3nc4ccccc4o3)cc2)cc1OC	103.7
CCOc1ccc(C(=O)Nc2ccc3oc(-c4ccncc4)nc3c2)cc1Br	108.3
CCOc1ccc(C(=O)Nc2ccc(-c3nc4ccccc4o3)cc2)cc1Br	69.3*	GIV Gai FP conf=78.7;GIV-Gai AS conf=44420
CC(NC(=O)CC1(CC2=NS(=O)(=O)c3ccccc3N2)CCCC1)c1ccccc1 (stereo unspecified)	101.6

Assay outcomes: PubChem, ICCB-Longwood Screening Facility, Harvard Medical School
